High-throughput results from PubChem.
Sampled rows, rich in hits. Any-hit rate of the full collection: about 0.62%.
Rango release inh: prevents RanGTP from dissociating the Rango-importin beta complex. O95149+P62826. Biochemical FRET Rango-importin beta, RanGTP-induced dissociation. Potency, µM (doses to about 46.1 µM), inactives show at the top dose activity change, negative = inhibition. actives 0.071% (n = 340,000); further: potency means the concentration at half of the fitted maximal effect; % of control where 0% means no effect; nearly all actives have a fitted effect of over 45% in size
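Compounds preincubate 5 min with complex of recombinant Rango and importin beta in PBS with 1 mM DTT. Ran (0.6 uM) loaded with 2 mM GTP plus 0.2 uM RCC1 starts dissociation; FRET is recorded 45 min later.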
pAkt inh: inhibitors of Akt phosphorylation. Neuro2A IGF-stimulated pAkt S473 HTRF, 20 min; stronger effect = lower value. activity change, % for hits at 50 µM. actives 0.32% (n = 360,000); in the data active means activity change below about -80%; inconclusive means mostly about -51% to -80%; further: on the % scale 0 is the no-effect control and ±100 the full control effect
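Single-point screen (50 µM final compound) in Neuro2A cells stimulated 20 min with 6 nM IGF at 37 deg C. After lysis, Ser473-phosphorylated Akt read by HTRF (ex 330 nm, em 615/665 nm) as the 665/615 ratio.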
TSHR antag: antagonists of human thyroid stimulating hormone receptor; P16473; TSHR-expressing cells, TSH-stimulated cAMP HTRF, 2 h; stronger effect = lower value; activity change, negative = inhibition, % at 11.5 µM; actives 0.2% (n = 330,000); AID 504810;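 active means activity change below a set negative limit, meaning inhibition stronger than a set level, cut at about -70% in these data; inconclusive means activity change between two set negative limits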; further: on the % scale 0 is the no-effect control and ±100 the full control effect
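TSHR-expressing cells were treated with compounds, then stimulated with TSH at EC80 (4nM final) for 2 hours at 37 deg C. Cellular cAMP was measured by HTRF competition between lysate cAMP and cAMP-d2 for a cryptate-labelled anti-cAMP antibody.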
p53 reactivator: restores transcriptional activity of mutant p53 | H1299 p53-A138V BP100-luciferase reporter, luminescence, 24 h | Potency, µM (series often up to 92.2 µM), for the others: at the highest dose activity change, positive = activation, most hits filed as activators | actives 0.063% (n = 320,000) | AID 504706; active means well fitted activation curve with a large enough effect; inconclusive means small, poorly fitted or top-dose-only effect; inactive means no such curve, though single readings can be large or run the other way; further: potency means the concentration at half of the fitted maximal effect; % of control where 0% means no effect; nearly all actives have a fitted effect of over 45% in size
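H1299 (p53-null), stable ts p53-A138V + BP100-Luc; 1000 cells/well, Opti-MEM/10% FBS; cpd 4 pt, 1:5; 24 h, 37 deg C, 5% CO2; detection reagent 10 min RT; luminescence.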
Rango complex inh: Rango-importin beta binding inhibition; Potency, µM (doses to about 92.2 µM), without a hit: top-dose inhibition of complex formation; Rango CFP/YFP FRET sensor + importin beta, 45 min; actives 0.031% (n = 340,000); Q14974;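 further: potency means the concentration at half of the fitted maximal effect; 0% = DMSO wells and 100% = buffer wells lacking importin beta; nearly all actives have a fitted effect of over 15% in size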
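FRET biosensor (snurportin 1 IBB flanked by EYFP and cerulean), 50 nM, with compound 5 min, then 0.125 microM importin beta in PBS, 1 mM DTT, 0.02% Tween-20, 0.1% BSA. CFP/YFP ratio read after 45 min at room temperature; pre-read flags interference.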
* hit, by the source's call. Unless noted, the call rests on the fitted dose curve.

The first 2 records (preview)
What do the screens show for `O=C(NCCC1=CCCCC1)C1CCN(S(=O)(=O)c2ccc(Br)s2)CC1`?
Rango release inh: -6%; pAkt inh: inactive; TSHR antag: -5; p53 reactivator: 6%; Rango complex inh: 1%

How did COc1cc2ccccc2cc1C(=O)Nc1ccc(N2CCN(C(=O)C(C)C)CC2)cc1 do in these assays?
Rango release inh: 1%; pAkt inh: inactive; TSHR antag: -5; p53 reactivator: -3%; Rango complex inh: 0%

This part in full, repeating the preview:
What do the screens show for `O=C(NCCC1=CCCCC1)C1CCN(S(=O)(=O)c2ccc(Br)s2)CC1`?
Rango release inh: -6%; pAkt inh: inactive; TSHR antag: -5; p53 reactivator: 6%; Rango complex inh: 1%

How did COc1cc2ccccc2cc1C(=O)Nc1ccc(N2CCN(C(=O)C(C)C)CC2)cc1 do in these assays?
Rango release inh: 1%; pAkt inh: inactive; TSHR antag: -5; p53 reactivator: -3%; Rango complex inh: 0%

What do the screens show for `COc1cc2ccccc2cc1C(=O)Nc1ccc(N2CCN(C)CC2)cc1`?
Rango release inh: 4%; TSHR antag: -1; p53 reactivator: 20µM*; Rango complex inh: 3%

How did Cc1cc(C)cc(NC(=S)NCC2CCCO2)c1 (configuration not stated) do in these assays?
Rango release inh: 2%; pAkt inh: -115%*; TSHR antag: 0; p53 reactivator: -5%; Rango complex inh: 3%

What do the screens show for `S=C(NCC1CCCO1)Nc1cc(Cl)c(Cl)cc1Cl` (configuration not stated)?
Rango release inh: -17%; pAkt inh: inactive; TSHR antag: -3; p53 reactivator: 3%; Rango complex inh: -1%

How did COc1cccc(N2CCN(c3ncnc4c3[nH]c3ccccc34)CC2C)c1 (configuration not stated) do in these assays?
TSHR antag: -100*; p53 reactivator: -28%

How did COc1ccc2[nH]c3c(N4CC(C)OC(C)C4)ncnc3c2c1 (configuration not stated) do in these assays?
Rango release inh: -14%; pAkt inh: inactive; TSHR antag: -11; p53 reactivator: -2%; Rango complex inh: 2%

Results for COc1cccc(N2CCN(c3ncnc4c3[nH]c3ccc(F)cc34)CC2C)c1 (configuration not stated) ?
Rango release inh: -5%; TSHR antag: -105*; p53 reactivator: -11%; Rango complex inh: -3%

Results for Cc1ccc(NC(=O)C(C)N2CCCC2)cc1Cl (configuration not stated) ?
Rango release inh: 4%; pAkt inh: inactive; TSHR antag: -9; p53 reactivator: -3%; Rango complex inh: 2%

Results for CCc1ccc(-c2cc(C)no2)cc1S(=O)(=O)N1CCN(c2cc(C)ccc2C)CC1 ?
Rango release inh: inconclusive; pAkt inh: inactive; TSHR antag: -37; p53 reactivator: 11%; Rango complex inh: 8%

Results for N#Cc1ccc(-c2csc(N3CCC(C(N)=O)CC3)n2)cc1 ?
TSHR antag: 12

Results for Cc1nnc(SCc2cccc3ccccc23)s1 ?
Rango release inh: 9%; pAkt inh: inactive; TSHR antag: -10; p53 reactivator: 2%; Rango complex inh: 0%

What do the screens show for `c1ccc(Nc2nnc(SCc3cccc4ccccc34)s2)cc1`?
Rango release inh: -8%; pAkt inh: -114%*; TSHR antag: -9; p53 reactivator: -2%; Rango complex inh: -1%

What do the screens show for `COc1ccccc1C(CNC(=O)c1cccc(S(=O)(=O)N2c3ccccc3CC2C)c1)N(C)C` (configuration not stated)?
Rango release inh: 20%; pAkt inh: inactive; Rango complex inh: 0%

Results for COc1ccc(OC)c(-c2cc(C(=O)Nc3cc(C)n(Cc4ccc(Cl)cc4)n3)no2)c1 ?
Rango release inh: inconclusive; pAkt inh: inactive; TSHR antag: -2; p53 reactivator: 20%; Rango complex inh: 2%

What do the screens show for `COc1cccc(-c2cc(C(=O)Nc3cc(C)n(Cc4ccc(Cl)cc4)n3)no2)c1`?
Rango release inh: -9%; pAkt inh: inactive; TSHR antag: -74*; p53 reactivator: 0%; Rango complex inh: 4%

What do the screens show for `COc1ccc(F)cc1S(=O)(=O)Nc1cc2c3c(c1)CCN3C(=O)CC2`?
Rango release inh: -3%; pAkt inh: inactive; TSHR antag: 39; p53 reactivator: 2%; Rango complex inh: 3%

Results for O=C(NCCN1CCN(Cc2ccccc2)CC1)C1c2ccccc2C(=O)N2CCc3ccccc3C12 (configuration not stated) ?
Rango release inh: 15%; pAkt inh: inactive; TSHR antag: -9; p53 reactivator: -6%; Rango complex inh: -1%

How did Cc1ccc(CNC(=O)C2c3ccccc3C(=O)N3CCc4ccccc4C23)o1 (configuration not stated) do in these assays?
Rango release inh: -17%; pAkt inh: -100%*; TSHR antag: 2; p53 reactivator: 26%; Rango complex inh: inconclusive

What do the screens show for `CCc1ccc(NC(=O)CSc2n[nH]c(=O)n2C2CC2)cc1`?
Rango release inh: 1%; pAkt inh: inactive; TSHR antag: 4; p53 reactivator: 2%; Rango complex inh: -1%

How did O=S(=O)(NCc1ccc(F)cc1)c1ccc(Br)cc1Br do in these assays?
Rango release inh: 2%; pAkt inh: inactive; TSHR antag: -20; p53 reactivator: 13%; Rango complex inh: 2%

What do the screens show for `Cc1nc2ccccc2c(=O)n1NC(=O)Cc1ccc(Br)cc1`?
Rango release inh: -15%; pAkt inh: -81%*; TSHR antag: -5; p53 reactivator: -4%; Rango complex inh: -2%

How did CCCn1c(N2CCN(CC(=O)NCc3cccs3)CC2)nc2ccccc21 do in these assays?
Rango release inh: -13%; pAkt inh: -110%*; TSHR antag: -3; p53 reactivator: -20%; Rango complex inh: -5%

How did Cc1cn([C@H]2C[C@H](O)[C@@H](CCC(=O)NCCc3cnc[nH]3)O2)c(=O)[nH]c1=O do in these assays?
Rango release inh: -16%; pAkt inh: inactive; Rango complex inh: 0%

What do the screens show for `O=C(NCc1ccc(F)cc1)c1cccc(S(=O)(=O)N2CCOCC2)c1`?
Rango release inh: -2%; pAkt inh: inactive; TSHR antag: -5; p53 reactivator: -3%; Rango complex inh: 65µM*

Results for O=C(NCc1ccc(F)cc1)c1cccc(S(=O)(=O)N2CCCC2)c1 ?
Rango release inh: -14%; pAkt inh: inactive; TSHR antag: -1; p53 reactivator: 0%; Rango complex inh: -3%

How did O=C(NCCO)c1cc2cc(Cl)cc(Cl)c2oc1=O do in these assays?
Rango release inh: 18µM*; pAkt inh: inactive; TSHR antag: -7; p53 reactivator: 2%; Rango complex inh: inconclusive

What do the screens show for `O=C1c2ccsc2SCCN1Cc1ccc(Cl)cc1Cl`?
Rango release inh: 9%; pAkt inh: -106%*; TSHR antag: 6; p53 reactivator: -2%; Rango complex inh: -2%

How did COc1cc(C(=O)Nc2ccc(NC(=O)c3ccccc3Cl)nc2)cc(OC)c1OC do in these assays?
Rango release inh: -12%; pAkt inh: inactive; TSHR antag: -9; p53 reactivator: -9%; Rango complex inh: 4%

At a glance, 2 of the compounds above.
What do the screens show for `CCc1ccc(NC(=O)CSc2n[nH]c(=O)n2C2CC2)cc1`?
Rango release inh: 1%; pAkt inh: inactive; TSHR antag: 4; p53 reactivator: 2%; Rango complex inh: -1%

How did O=S(=O)(NCc1ccc(F)cc1)c1ccc(Br)cc1Br do in these assays?
Rango release inh: 2%; pAkt inh: inactive; TSHR antag: -20; p53 reactivator: 13%; Rango complex inh: 2%
